Experimental data: publication PMC3612139 (Bioorganic chemistry, 2013)

Legend:
[1] = system: HL-60 promyelocytes; assay: HL-60 differentiation; type: cell-based; conditions: average ratio of the analogue EC50 to the EC50 for 1α,25-(OH)2D3
Method in brief: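 Differentiation of HL-60 promyelocytes to monocytes, scored as the percentage of cells reducing nitro blue tetrazolium. EC50 taken from dose–response curves as the concentration giving 50% maturation. Ratio is the average of test compound EC50 over 1α,25-(OH)2D3 EC50. Run in duplicate on at least two occasions.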

[2] = system: 24-hydroxylase gene reporter plasmid in rat osteosarcoma cells; assay: 24-hydroxylase transcription; type: cell-based; conditions: average ratio of the EC50 for the analogue to the EC50 for 1α,25-(OH)2D3

Q: Which results are given for C=C1/C(=C\C=C2/CCC[C@]3(C)[C@@H]([C@H](C)CCCC(C)(C)O)CC[C@@H]23)C[C@@H](O)C[C@@H]1O [Compound 1, 1α,25-Dihydroxyvitamin D3]?
A: HL-60 differentiation ratio [1]: 1; 24-OHase transcription ratio [2]: 1
